From ChEMBL document CHEMBL1949664, “Epiminocyclohepta[b]indole analogs as 5-HT6 antagonists” (Bioorg Med Chem Lett, 2012)

By UniProt entry, the sequences of proteins in these tests, tags left out.
UniProt P50406, whole entry: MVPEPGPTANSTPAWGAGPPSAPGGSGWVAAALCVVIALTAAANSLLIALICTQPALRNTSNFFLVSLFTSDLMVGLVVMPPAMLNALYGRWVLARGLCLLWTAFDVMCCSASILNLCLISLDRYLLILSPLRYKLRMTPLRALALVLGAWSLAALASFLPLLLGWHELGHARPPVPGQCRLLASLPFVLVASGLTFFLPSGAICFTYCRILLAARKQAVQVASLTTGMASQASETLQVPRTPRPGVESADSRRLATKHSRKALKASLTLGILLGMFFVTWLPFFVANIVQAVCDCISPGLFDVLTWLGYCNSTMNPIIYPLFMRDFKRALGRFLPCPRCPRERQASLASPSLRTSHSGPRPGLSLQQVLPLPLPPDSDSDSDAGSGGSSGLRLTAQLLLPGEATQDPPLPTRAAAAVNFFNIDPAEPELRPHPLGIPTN

Legend:
[1] = target: T1, 5-hydroxytryptamine receptor 6 (Homo sapiens, UniProt P50406); experiment: Displacement of [3H]LSD from human 5-HT6 serotonin receptor by scintillation proximity assay
Procedure, shortened: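 SPA with human 5-HT6 receptor membranes (2.5 µg/well), 10 nM [N-methyl-3H]-LSD, WGA SPA beads, in 50 mM Tris-HCl pH 7.5, 5 mM MgCl2, 1 mM EDTA, 4% DMSO final. Ten competitor concentrations in duplicate; IC50 from specific binding, Ki by Cheng–Prusoff. Means of at least two determinations.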

[2] = tested on: Caco-2; experiment: (§1) Efflux ratio of permeability from basolateral to apical side over apical to basolateral side in human Caco2 cells; format: ADME, cell-based
Procedure, shortened: (§2)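 Caco-2 monolayers; basolateral-to-apical flux divided by apical-to-basolateral flux.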

[3] = target: T1, 5-hydroxytryptamine receptor 6; experiment: Antagonist activity at human 5-HT6 serotonin receptor expressed in CHO-1 cells assessed as inhibition of 5-hydroxytryptamine-induced cAMP production; format: functional, cell-based
Procedure, shortened: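 CHO-1 cells expressing human 5-HT6; cAMP production measured under 30 nM 5-HT challenge (EC80), relative to EC80 control wells. Ten concentrations in duplicate; IC50 converted to Kb by modified Cheng–Prusoff. Means of at least two determinations.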

[4] = as §1; format: ADME, cell-based; settings: caco-2; procedure, shortened: as §2

Structure (SMILES) | Ki [1] [nM] | Kb [3] [nM] | other results
Cn1c2c(c3cc(S(=O)(=O)c4ccccc4)ccc31)C1CCC(C2)N1 (racemic) | 8.2 | – | –
Cn1c2c(c3cc(S(=O)(=O)c4cccc(C(F)(F)F)c4)ccc31)C1CCC(C2)N1 (racemic) | 2.4 | – | –
Cn1c2c(c3cc(S(=O)(=O)c4cccc(OC(F)(F)F)c4)ccc31)C1CCC(C2)N1 (racemic) | 7.2 | – | –
Cn1c2c(c3cc(S(=O)(=O)c4csc5ccccc45)ccc31)C1CCC(C2)N1 (racemic) | 0.33 | – | –
Cn1c2c(c3cc(S(=O)(=O)c4csc5ccccc45)ccc31)C1CCC(C2)N1 (single isomer, unassigned) [listing 1 of 2 here] | 0.28 | – | Ratio [2]: 2.8
Cn1c2c(c3cc(S(=O)(=O)c4csc5ccccc45)ccc31)C1CCC(C2)N1 (single isomer, unassigned) [listing 2 of 2 here] | – | 2.5 | –
Cn1c2c(c3cc(S(=O)(=O)c4ccccc4)ccc31)C1CCC(C2)N1 (single isomer, unassigned; (+)) [listing 1 of 2 here] | 9.6 | – | –
Cn1c2c(c3cc(S(=O)(=O)c4cccc(C(F)(F)F)c4)ccc31)C1CCC(C2)N1 (single isomer, unassigned; (+)) [listing 1 of 2 here] | 1.5 | – | Ratio [2]: 1.8
Cn1c2c(c3cc(S(=O)(=O)n4ccc5ccccc54)ccc31)C1CCC(C2)N1 (single isomer, unassigned; (+)) [listing 1 of 2 here] | – | – | Ratio [2]: 1.9
Cn1c2c(c3cc(S(=O)(=O)c4c[nH]c5ccccc45)ccc31)C1CCC(C2)N1 (single isomer, unassigned; (+)) [listing 1 of 2 here] | – | – | Ratio [2]: 8.5
Cn1c2c(c3cc(S(=O)(=O)c4c[nH]c5ccccc45)ccc31)C1CCC(C2)N1 (single isomer, unassigned; (+)) [listing 2 of 2 here] | – | 2.6 | –
Cn1c2c(c3cc(S(=O)(=O)c4ccc5[nH]ccc5c4)ccc31)C1CCC(C2)N1 (single isomer, unassigned; (+)) | – | 1.5 | –
Cn1c2c(c3cc(S(=O)(=O)c4cccc(C(F)(F)F)c4)ccc31)C1CCC(C2)N1 (single isomer, unassigned; (+)) [listing 2 of 2 here] | – | 12 | –
Cn1c2c(c3cc(S(=O)(=O)c4ccccc4)ccc31)C1CCC(C2)N1 (single isomer, unassigned; (+)) [listing 2 of 2 here] | – | 3.9 | –
Cn1c2c(c3cc(S(=O)(=O)n4ccc5ccccc54)ccc31)C1CCC(C2)N1 (single isomer, unassigned; (+)) [listing 2 of 2 here] | – | 9.7 | –
Cn1c2c(c3cc(S(=O)(=O)c4ccccc4)ccc31)C1CCC(C2)N1 (single isomer, unassigned; (-)) [listing 1 of 2 here] | 15 | – | –
Cn1c2c(c3cc(S(=O)(=O)c4cccc(C(F)(F)F)c4)ccc31)C1CCC(C2)N1 (single isomer, unassigned; (-)) [listing 1 of 2 here] | 3.7 | – | efflux ratio [4]: 2.8
Cn1c2c(c3cc(S(=O)(=O)n4ccc5ccccc54)ccc31)C1CCC(C2)N1 (single isomer, unassigned; (-)) [listing 1 of 2 here] | – | – | efflux ratio [4]: 2.2
Cn1c2c(c3cc(S(=O)(=O)c4c[nH]c5ccccc45)ccc31)C1CCC(C2)N1 (single isomer, unassigned; (-)) [listing 1 of 2 here] | – | – | Ratio [2]: 2.5
Cn1c2c(c3cc(S(=O)(=O)c4ccc5[nH]ccc5c4)ccc31)C1CCC(C2)N1 (single isomer, unassigned; (-)) [listing 1 of 2 here] | – | – | efflux ratio [4]: 40
Cn1c2c(c3cc(S(=O)(=O)c4csc5ccccc45)ccc31)C1CCC(C2)N1 (single isomer, unassigned; (-)) [listing 1 of 2 here] | – | – | efflux ratio [4]: 3.7
Cn1c2c(c3cc(S(=O)(=O)c4c[nH]c5ccccc45)ccc31)C1CCC(C2)N1 (single isomer, unassigned; (-)) [listing 2 of 2 here] | – | 2.8 | –
Cn1c2c(c3cc(S(=O)(=O)c4ccc5[nH]ccc5c4)ccc31)C1CCC(C2)N1 (single isomer, unassigned; (-)) [listing 2 of 2 here] | – | 1.6 | –
Cn1c2c(c3cc(S(=O)(=O)c4cccc(C(F)(F)F)c4)ccc31)C1CCC(C2)N1 (single isomer, unassigned; (-)) [listing 2 of 2 here] | – | 15 | –
Cn1c2c(c3cc(S(=O)(=O)c4ccccc4)ccc31)C1CCC(C2)N1 (single isomer, unassigned; (-)) [listing 2 of 2 here] | – | 11 | –
Cn1c2c(c3cc(S(=O)(=O)c4csc5ccccc45)ccc31)C1CCC(C2)N1 (single isomer, unassigned; (-)) [listing 2 of 2 here] | – | 3.4 | –
Cn1c2c(c3cc(S(=O)(=O)n4ccc5ccccc54)ccc31)C1CCC(C2)N1 (single isomer, unassigned; (-)) [listing 2 of 2 here] | – | 10 | –
